# AlphaSeq binding of Ab-95 light chain variants to a spike HR2 peptide

The measurements come from Engelhart et al. 2022 (doi:10.1038/s41597-022-01779-4) through the FLAb antibody collection.

Antigen: PDVDLGDISGINAS, a 14-residue peptide of the SARS-CoV-2 spike HR2 region.

Parent scFv Ab-95: VH joined to VL by a (GGGGS)3 linker. Changes lie in the light chain CDRs alone.
VH: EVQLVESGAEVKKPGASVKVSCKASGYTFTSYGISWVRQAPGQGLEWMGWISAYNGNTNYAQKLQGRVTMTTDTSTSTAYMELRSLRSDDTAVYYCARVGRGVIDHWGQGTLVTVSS
VL: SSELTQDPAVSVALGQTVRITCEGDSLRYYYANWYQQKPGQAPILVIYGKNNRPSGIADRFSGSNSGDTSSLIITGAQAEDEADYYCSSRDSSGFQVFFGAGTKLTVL

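The starting antibody came from a phage panning campaign against this peptide. Variants in AAYL52 differ from the parent at up to three CDR positions; double and triple changes were sampled at random. AlphaSeq pools MATa yeast showing the antibodies with MATalpha yeast showing the peptide. The frequency of each diploid, read from paired DNA barcodes, reflects how well the two displayed proteins bind. The ratio of observed to expected reads was calibrated, replicate by replicate, on BCL2-family standards whose Kd was known from biolayer interferometry. Each pool was mated in three replicate cultures.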

Each variant is given by its three light chain CDRs, as the data file delimits them; those of the parent are EGDSLRYYYAN, GKNNRPS, SSRDSSGFQVF. The read-out is the apparent dissociation constant on a log10 scale (nM): the lower, the stronger. A mean of the replicates is given; it leaves out those without a signal. A pair that was not seen in any replicate is written "nd"; this usually means weak binding, but a binder can also be missed. In this assay the parent's reference entry averaged 2.31; its copy inside this library read 2.25. Empty control strains, which show no peptide, gave a signal in 28% of pairings with library AAYL52; the median was 3.91 and 95% of these signals were weaker than 2.90. No background was subtracted. For each scFv, signals with the empty controls are counted beside the result.

For EGDSLRWYYAN / GKNHRPS / SSRDSSGFQVF, the assay gave 3.72 (2 of 3 replicates; controls 0 of 9).
For ESDSLRYYYAC / GKNNRPS / SSRDSSGFQRF, the assay gave nd (0 of 3 replicates; controls 2 of 9).
For EGDSLRYYYAN / GKNNRPS / SLKCSSGFQVF, the assay gave 1.94 (3 of 3 replicates; controls 2 of 9).
For EGDSLRYYYAN / GKNPRPS / SIRDSSGFQFF, the assay gave 3.69 (2 of 3 replicates; controls 2 of 9).
For EGDRLRYYYAN / GKNNRPS / SSPDSSGFQNF, the assay gave nd (0 of 3 replicates; controls 0 of 9).
For EGDSLRYTYAN / GKNLRPS / SSRDSSRFQVF, the assay gave 1.58 (3 of 3 replicates; controls 6 of 9).
For CADSLRYYYAN / GKNNHPS / SSRDSSGFQVF, the assay gave 4.01 (2 of 3 replicates; controls 2 of 9).
For AGDSLRYYYAN / GKNNGPS / SSRDSSGFQVF, the assay gave 4.06 (2 of 3 replicates; controls 2 of 9).
For EGDSLRYYYAN / GKNGRPQ / SSRDSSGEQVF, the assay gave 2.14 (3 of 3 replicates; controls 1 of 9).
For EGDSLRYYYAN / GKNNPPS / SSRKSSGFQVF, the assay gave 4.47 (2 of 3 replicates; controls 3 of 9).
For EGDSLRYEYAN / GKNNRPS / SSRDSSGNQWF, the assay gave 1.76 (3 of 3 replicates; controls 0 of 9).
For FGDSLRYWYAN / GKNNRPS / SSRDSSGGQVF, the assay gave 2.67 (3 of 3 replicates; controls 2 of 9).
For EQDSLRYYYAN / LKNNRPS / SSRDSSGFQVF, the assay gave nd (0 of 3 replicates; controls 2 of 9).
For LGDSLRYYYAN / GKNNRPS / SSRDSKGFQVF, the assay gave 3.73 (3 of 3 replicates; controls 3 of 9).
For EGNSYRYYYAN / GKNNRPS / SSMDSSGFQVF, the assay gave 4.54 (1 of 3 replicates; controls 2 of 9).
For EGDSLRNYYAN / PKNNRPS / SRRDSSGFQVF, the assay gave 3.28 (1 of 3 replicates; controls 3 of 9).
For EGDILRDRYAN / GKNNRPS / SSRDSSGFQVF, the assay gave 1.05 (3 of 3 replicates; controls 3 of 9).
For EGDWLRYYYAN / GKNNRPS / SSRDTSGFQFF, the assay gave nd (0 of 3 replicates; controls 2 of 9).
For EMDSWRYYYAN / GKNNRPS / SSRDSSYFQVF, the assay gave 4.05 (2 of 3 replicates; controls 4 of 9).
For EGDSLRKYYAN / GKNNRPS / SSRDSSGFDVF, the assay gave 3.08 (3 of 3 replicates; controls 1 of 9).
For WGDSLNYYYAN / GKNNRPS / SSRDSSGFQYF, the assay gave 3.30 (3 of 3 replicates; controls 4 of 9).
For EGDSLRYYYAN / GKNNRPM / SSRFSWGFQVF, the assay gave 4.31 (1 of 3 replicates; controls 0 of 9).
For EGDSLRYYYDN / GKNNLPS / SSRDSSGFGVF, the assay gave 3.94 (2 of 3 replicates; controls 6 of 9).
For EGDTLRYCYAN / GKNNLPS / SSRDSSGFQVF, the assay gave 3.44 (1 of 3 replicates; controls 1 of 9).
For EGDVLRYYYAN / GKYNKPS / SSRDSSGFQVF, the assay gave 4.08 (2 of 3 replicates; controls 3 of 9).
For EGDSLRYYGAN / GKNNRPK / SSHDSSGFQVF, the assay gave 2.74 (3 of 3 replicates; controls 0 of 9).
For EGFPLRYYYYN / GKNNRPS / SSRDSSGFQVF, the assay gave 2.89 (3 of 3 replicates; controls 3 of 9).
For EGDSERYYYAN / GKNNRPS / SSRPSSGFVVF, the assay gave 3.91 (1 of 3 replicates; controls 2 of 9).
For EYDSLRYYYAN / GKNNRPS / SSRDSGIFQVF, the assay gave 4.56 (2 of 3 replicates; controls 1 of 9).
For EGDSLRYYEAN / GKNNRPS / SSRDSSGFQIL, the assay gave 1.55 (3 of 3 replicates; controls 1 of 9).
For PGDSLRYYYAD / GSNNRPS / SSRDSSGFQVF, the assay gave nd (0 of 3 replicates; controls 0 of 9).
For EGDSLRYQYTN / GKNNRPW / SSRDSSGFQVF, the assay gave 0.47 (3 of 3 replicates; controls 2 of 9).
For EGDSLRYYYAN / MKNNRPS / SSRDASGFQWF, the assay gave nd (0 of 3 replicates; controls 2 of 9).
For EGWSLRYYYAN / GVNWRPS / SSRDSSGFQVF, the assay gave 4.05 (1 of 3 replicates; controls 0 of 9).
For EGDSLRYYRAN / GKNNRPL / SSRDGSGFQVF, the assay gave nd (0 of 3 replicates; controls 0 of 9).
For EGDSLRYLYAN / GKNNRPS / SSRDTEGFQVF, the assay gave 2.93 (3 of 3 replicates; controls 4 of 9).
For EGDSLRYYYAN / GKNNQPS / SSRDSSFFQQF, the assay gave 3.65 (2 of 3 replicates; controls 5 of 9).
For EGDSSRYYYAN / GYNNRPQ / SSRDSSGFQVF, the assay gave 3.71 (3 of 3 replicates; controls 2 of 9).
For EGDSLRTYYAN / GKNNRPV / SSRDSSGFIVF, the assay gave 2.16 (3 of 3 replicates; controls 4 of 9).
For EGDSLRCYYAY / GKNNRPS / SSRDSSGFVVF, the assay gave nd (0 of 3 replicates; controls 2 of 9).
For EGDSLRSYYAN / GKWNRPS / SSRDSVGFQVF, the assay gave 3.69 (2 of 3 replicates; controls 5 of 9).
For EGDSLRYHYAN / GKNNRPS / SPRDSSGFDVF, the assay gave 1.94 (3 of 3 replicates; controls 4 of 9).
For EGDSLRYYYAN / GKNNRPS / SSRDASGFQEF, the assay gave 2.28 (3 of 3 replicates; controls 1 of 9).
For EGDSLRYYYEN / GKNNRPS / SSRDSSGWSVF, the assay gave 2.46 (3 of 3 replicates; controls 7 of 9).
For EGYSLRTYGAN / GKNNRPS / SSRDSSGFQVF, the assay gave 1.33 (3 of 3 replicates; controls 1 of 9).
For SGDALRYYWAN / GKNNRPS / SSRDSSGFQVF, the assay gave 1.91 (3 of 3 replicates; controls 1 of 9).
For EGQSLRYYYAN / GKNNRES / SSHDSSGFQVF, the assay gave 5.45 (1 of 3 replicates; controls 1 of 9).
For EGDSLRYYYRN / GKNNRPS / SWVDSSGFQVF, the assay gave 3.74 (1 of 3 replicates; controls 1 of 9).
For EMRSLRYYYAN / GKNNRPS / SSRDSSGFQNF, the assay gave 4.59 (1 of 3 replicates; controls 3 of 9).
For EGDYFRYYYAN / GKNNRPS / SLRDSSGFQVF, the assay gave 3.70 (1 of 3 replicates; controls 4 of 9).

The opening 5 entries, copied out:

EGDSLRWYYAN / GKNHRPS / SSRDSSGFQVF: 3.72 (2 of 3 replicates; controls 0 of 9).
ESDSLRYYYAC / GKNNRPS / SSRDSSGFQRF: nd (0 of 3 replicates; controls 2 of 9).
EGDSLRYYYAN / GKNNRPS / SLKCSSGFQVF: 1.94 (3 of 3 replicates; controls 2 of 9).
EGDSLRYYYAN / GKNPRPS / SIRDSSGFQFF: 3.69 (2 of 3 replicates; controls 2 of 9).
EGDRLRYYYAN / GKNNRPS / SSPDSSGFQNF: nd (0 of 3 replicates; controls 0 of 9).